Measured values from ChEMBL document CHEMBL2073809, “Interrelationship between substrates and inhibitors of human CYP3A and P-glycoprotein” (Pharm Res, 1999).

Protein sequences, listed by entry. Tags and fused reporters are not part of them.
UniProt P21447, whole entry: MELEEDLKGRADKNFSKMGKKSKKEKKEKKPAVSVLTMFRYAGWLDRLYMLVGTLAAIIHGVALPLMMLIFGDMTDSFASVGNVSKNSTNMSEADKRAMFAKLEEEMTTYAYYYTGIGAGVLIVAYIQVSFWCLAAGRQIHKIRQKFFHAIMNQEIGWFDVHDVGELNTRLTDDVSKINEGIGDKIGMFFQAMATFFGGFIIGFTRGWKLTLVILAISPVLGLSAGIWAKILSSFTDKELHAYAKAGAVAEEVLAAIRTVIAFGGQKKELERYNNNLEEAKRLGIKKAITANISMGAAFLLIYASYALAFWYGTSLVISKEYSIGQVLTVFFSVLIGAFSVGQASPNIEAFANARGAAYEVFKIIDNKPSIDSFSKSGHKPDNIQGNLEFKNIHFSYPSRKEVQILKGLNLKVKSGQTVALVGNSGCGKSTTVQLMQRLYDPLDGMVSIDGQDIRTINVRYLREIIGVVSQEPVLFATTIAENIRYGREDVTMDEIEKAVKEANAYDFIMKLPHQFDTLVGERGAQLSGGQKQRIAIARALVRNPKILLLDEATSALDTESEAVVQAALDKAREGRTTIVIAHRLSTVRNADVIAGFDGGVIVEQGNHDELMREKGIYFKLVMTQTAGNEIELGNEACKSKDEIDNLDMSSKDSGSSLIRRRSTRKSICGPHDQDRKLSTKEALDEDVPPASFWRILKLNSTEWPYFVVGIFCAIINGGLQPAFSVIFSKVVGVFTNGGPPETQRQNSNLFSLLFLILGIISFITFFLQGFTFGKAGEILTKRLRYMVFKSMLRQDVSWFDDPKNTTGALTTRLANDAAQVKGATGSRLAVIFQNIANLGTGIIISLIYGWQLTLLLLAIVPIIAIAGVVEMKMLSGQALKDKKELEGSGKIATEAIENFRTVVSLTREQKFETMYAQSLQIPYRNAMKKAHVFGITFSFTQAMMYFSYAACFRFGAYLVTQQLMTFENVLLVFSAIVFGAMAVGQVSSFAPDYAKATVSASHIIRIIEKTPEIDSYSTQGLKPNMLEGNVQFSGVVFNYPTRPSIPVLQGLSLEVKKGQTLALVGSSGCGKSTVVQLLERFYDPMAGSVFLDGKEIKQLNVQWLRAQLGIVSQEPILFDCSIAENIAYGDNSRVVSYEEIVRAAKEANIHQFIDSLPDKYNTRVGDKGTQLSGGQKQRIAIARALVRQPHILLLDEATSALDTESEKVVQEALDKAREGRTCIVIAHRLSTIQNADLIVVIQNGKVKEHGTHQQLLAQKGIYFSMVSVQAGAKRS

Biological target: ATP-dependent translocase ABCB1 (Mus musculus, UniProt P21447)
Assay: TP_TRANSPORTER: no change in brain concentration in mdr1a(-/-) mouse
Type: functional, organism-based
Conditions: in vivo

Activity: is not a substrate [-]
Sequence: IVERMECTIN
